Only a part is listed here, and it is no random draw. The source made the active and inactive calls.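 The calls were made as follows: active = signal change above the mean of dofetilide-free buffer controls plus 3 SD, so a positive margin; inactive = the rest.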
Assay: nonspecific flux effects in parental CHO-K1, confirmation, counter-screen for hERG block protection project, cell-based, CHO-K1 parental line, FluxOR thallium flux (AID 1839);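 also: compounds applied alone with no dofetilide to cells lacking hERG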
Conditions: CHO-K1 parental cells, FluxOR thallium flux fluorescence; at 10 µM

| SMILES | signal change vs control minus 3*SD hit threshold (margin above threshold, higher = more increase) |
| --- | --- |
| CCOC(=O)N1CCC(Nc2ccc(OC)cc2)CC1 | inactive: -19.8% |
